The values below come from patent publication US20190367631A1.

Sequences of proteins named here, by UniProt entry; tags and fusion partners are left off. A change or cut given only in a name is not applied to a line headed by its entry.
UniProt P21757: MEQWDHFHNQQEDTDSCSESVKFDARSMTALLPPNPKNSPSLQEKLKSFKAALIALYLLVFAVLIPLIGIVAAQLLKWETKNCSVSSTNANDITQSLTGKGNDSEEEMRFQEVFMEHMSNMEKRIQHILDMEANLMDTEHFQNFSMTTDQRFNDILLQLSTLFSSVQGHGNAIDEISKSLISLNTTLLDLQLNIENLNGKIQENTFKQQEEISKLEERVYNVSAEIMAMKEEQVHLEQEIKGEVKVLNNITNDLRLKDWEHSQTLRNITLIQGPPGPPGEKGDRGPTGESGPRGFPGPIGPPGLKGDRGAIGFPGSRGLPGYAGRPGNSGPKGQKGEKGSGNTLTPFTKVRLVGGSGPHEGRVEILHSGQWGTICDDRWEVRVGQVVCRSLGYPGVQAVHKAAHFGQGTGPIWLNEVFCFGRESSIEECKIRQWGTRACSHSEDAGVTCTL

Experiment [1] concerns the target endogenously expressed human MSR1 on PMA-treated THP-1 cells (human) (UniProt P21757). The experiment can be described thus: cell-based or functional assay.
Experiment [2] shares this target. In words: ECL cell binding, PMA-treated THP-1 cells, 11 nM.
The target is the same in experiment [3]. The experiment can be described thus: confocal imaging, differentiated THP-1 cells, Alexa 488 secondary.

B1: H1H27751P-N297Q (antibody, human IgG1, V domains shown)
VH: EVQLVESGGGLVQPGGSLRLSCAASGFTFSNYAMHWVRQAPGKGLEYVSAISSNGGSTYYADSVKGRITISRDNSKNTLYLQMGSLRAEDMAVYYCARGRPYYYYFGMDVWGQGTTVTVSS
VL: DIVMTQTPVSSPVTLGQPASISCRSSQSLVHSDGNTYLSWFQQRPGQPPRLLIYKISNRFSGVPDRFSGSGAGTDFTLKISRVEAEDVGVYYCMQATQFPLNFGGGTKVEIKR
B1: in experiment [1], the % Internalization amounted to 84.9% and the Total Internalized RFU came to 6.79e+06 RFU. The ratio of binding signal (RLU) to isotype control in experiment [2] stood at 54 fold. In experiment [3], this molecule came in with a Total Binding at 4° C. (RFU) of 5.83e+06 RFU and a Total Binding at 37° C. (RFU) of 8e+06 RFU.
